Measurements from PubChem BioAssay AID731 (The Scripps Research Institute Molecular Screening Center, 2007).
This is a selection; strong and weak results do not stand in their true shares. Some tests of the compounds listed are not included; inactive here does not mean inactive elsewhere. Calls of active or inactive are those of the source. No stated cut-off is given here; in the data, active means activation above about 23%; inactive means the rest.

Chains of the proteins cited; added tags and fusions are not shown. Residues count along the entry.
UniProt P37231, 232-505 limits assumed: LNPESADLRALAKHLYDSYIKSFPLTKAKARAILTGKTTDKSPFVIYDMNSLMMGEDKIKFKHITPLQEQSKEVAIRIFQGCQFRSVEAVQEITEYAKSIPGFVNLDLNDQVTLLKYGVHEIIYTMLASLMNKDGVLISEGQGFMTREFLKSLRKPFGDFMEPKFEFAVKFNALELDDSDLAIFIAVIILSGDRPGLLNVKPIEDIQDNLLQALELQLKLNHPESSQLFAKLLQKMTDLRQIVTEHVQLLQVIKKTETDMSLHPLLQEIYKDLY
UniProt Q9Y6Q9, whole entry partner: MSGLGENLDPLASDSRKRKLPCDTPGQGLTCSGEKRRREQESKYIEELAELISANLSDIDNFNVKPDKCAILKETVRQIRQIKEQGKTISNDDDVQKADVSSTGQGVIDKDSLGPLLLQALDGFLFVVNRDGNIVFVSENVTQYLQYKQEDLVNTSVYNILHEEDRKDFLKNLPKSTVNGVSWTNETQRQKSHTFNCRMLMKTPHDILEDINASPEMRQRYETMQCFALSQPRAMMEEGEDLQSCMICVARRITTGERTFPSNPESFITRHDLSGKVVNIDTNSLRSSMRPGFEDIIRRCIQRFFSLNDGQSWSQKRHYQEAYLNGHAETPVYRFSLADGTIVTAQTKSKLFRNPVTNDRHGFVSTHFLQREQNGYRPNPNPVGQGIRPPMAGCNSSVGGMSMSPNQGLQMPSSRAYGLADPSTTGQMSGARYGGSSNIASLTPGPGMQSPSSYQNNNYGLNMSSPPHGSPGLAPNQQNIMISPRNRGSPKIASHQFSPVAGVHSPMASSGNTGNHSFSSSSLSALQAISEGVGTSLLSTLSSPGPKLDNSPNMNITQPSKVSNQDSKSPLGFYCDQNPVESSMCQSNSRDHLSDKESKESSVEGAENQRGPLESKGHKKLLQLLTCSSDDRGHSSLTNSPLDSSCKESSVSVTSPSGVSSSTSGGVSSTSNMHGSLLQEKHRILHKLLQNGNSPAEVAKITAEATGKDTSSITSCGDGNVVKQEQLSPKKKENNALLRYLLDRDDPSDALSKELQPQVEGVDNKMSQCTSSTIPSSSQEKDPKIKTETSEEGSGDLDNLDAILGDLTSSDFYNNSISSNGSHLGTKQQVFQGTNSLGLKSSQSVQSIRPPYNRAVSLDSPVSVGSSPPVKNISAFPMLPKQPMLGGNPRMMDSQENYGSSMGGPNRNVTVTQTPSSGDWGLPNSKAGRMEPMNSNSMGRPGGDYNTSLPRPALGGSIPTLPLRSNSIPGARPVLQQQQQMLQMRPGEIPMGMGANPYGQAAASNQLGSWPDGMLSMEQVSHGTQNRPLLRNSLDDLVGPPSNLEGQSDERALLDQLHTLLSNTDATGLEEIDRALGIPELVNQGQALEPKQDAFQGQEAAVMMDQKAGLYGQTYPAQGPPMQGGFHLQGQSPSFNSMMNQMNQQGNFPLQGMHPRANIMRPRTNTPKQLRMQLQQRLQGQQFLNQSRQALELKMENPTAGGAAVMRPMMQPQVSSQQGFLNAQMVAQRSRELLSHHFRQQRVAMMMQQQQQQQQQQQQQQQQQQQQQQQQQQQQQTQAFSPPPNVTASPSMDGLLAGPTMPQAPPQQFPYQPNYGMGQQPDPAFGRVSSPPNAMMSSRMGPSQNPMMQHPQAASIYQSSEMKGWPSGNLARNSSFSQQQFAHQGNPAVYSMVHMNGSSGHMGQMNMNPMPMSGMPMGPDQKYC

biological target: Peroxisome proliferator-activated receptor gamma (Homo sapiens) (UniProt P37231); experiment: enhancers of SRC-3 binding to PPARgamma – biochemical, primary screen (AID 731); details: biochemical PPARgamma/SRC-3 coactivator recruitment assay; at 8 µM; hits give high values;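 further: 0% = DMSO and 100% = reference agonist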

Row | SMILES | activation
1 | O=C(NCC1(N2CCCCC2)CCCCC1)c1cc([N+](=O)[O-])ccc1Cl | inactive: -1.8%
2 | CC(C)N1C(=O)CC2(CCN(CCOC(=O)C(O)(c3ccccc3)c3ccccc3)CC2)C1=O | inactive: -15.7%
3 | Cc1ccccc1C(=O)NCC1(N2CCCCC2)CCCCC1 | inactive: 0.64%
4 | CN(C)C1CCCC1OC(=O)C(O)(c1ccccc1)c1ccccc1 (centres undefined) | inactive: -1.27%
5 | C=CCN1CCN(CCOC(=O)C(O)(c2ccccc2)c2ccccc2)CC1 | inactive: 1.73%
6 | CCN1CCCC(OC(=O)C2(O)c3ccccc3C=Cc3ccccc32)C1 (centres undefined) | inactive: -2.5%
7 | COc1cccc(C(=O)NCC2(N3CCCCC3)CCCCC2)c1 | inactive: -0.62%
8 | O=C(OC1CN2CCC1CC2)C(CO)(c1ccccc1)c1ccccc1 (centres undefined) | inactive: 3.07%
9 | CN(C)c1cccc(C(=O)NCC2(N(C)C)CCCCC2)c1 | inactive: -0.54%
